The values that follow come from patent US9783535B2 (priority 2012, dated 2017).

The series in a line: CNS penetration across the blood brain barrier. On the set-up: species or system mice. The following applies: mouse, in vivo. As to the method:
Mice are dosed with compounds. Brain to blood ratios are determined by HPLC and LC/MS/MS analysis following oral administration of the test compounds in mice.

Ibogaine: the “Crossing of the BBB and brain concentration” value was “cross the BBB and reach micromolar concentrations in brain”.
